According to patent US8053197B2, “Methods for detecting and treating autoimmune disorders” (Oregon Health & Science University, priority 2004, dated 2011):

Key:
[1] = system: TCR reactive T cell lines; assay: Reversal of Treg activity of TCR reactive T cell lines; assay type: cell-based, human
Source text: To further test the association between TCR reactivity and Treg function, T cell lines specific for TCR determinants (Pool #1 peptides, CDR2 peptides from BV5S2, BV6S5, and BV13S1, or a soluble single chain AV23/BV6 protein) or control antigens (TT, ConA, or MOG peptide) were isolated and evaluated for suppressive activity.

[2] = system: CD4+CD25+ Treg cells; assay: Reversal of Treg activity of bead-sorted CD4+CD25+ T cells from PBMC; assay type: cell-based, human
Protocol: All suppression assays were performed in 96-well round bottom plates (Becton Dickinson, Franklin Lakes, N.J.) in a final volume of 200 μl/well of 1% type AB human serum complete media (Bio Whittaker, Walkersville, Md.). Prior to assay setup, 18 wells each in the 96 well plates were coated with 100 μl of a final concentration of 2.0 μg/ml anti-CD3+ anti-CD28 mAbs, or 1.0, 0.5, and 0.1 μg/ml anti-CD3 mAb only (Caltag Labs, Burlingame, Calif.), and the plates were incubated overnight at 4° C. All wells were washed before assay setup. […] The cells were then harvested on glass fiber filters and assessed for uptake of the labeled thymidine by liquid scintillation. Percent suppression was determined at each mixed cell ratio compared to responses of CD4+CD25+ (suppressor cells) and CD4+CD25− T cells (indicator T cells) alone as follows:
To develop a standard procedure for assessing inhibitory activity of CD4+CD25+ Treg cells in vitro, CD4+CD25+ T cells isolated using a FACSVantage cell sorter (Becton Dickinson, Franidin Lakes, N.J.) versus magnetic beads were compared. […] The cells were stimulated with plate-bound anti-CD3+ anti-CD28 mAbs for 6 days at an optimal stimulatory concentration (0.2 μg/ml) in the absence of additional APC, and after 6 days, were assessed for proliferation responses using 3H-Tdy uptake. […]

[3] = system: multiple sclerosis; settings: cited from earlier work

Molecule: IL-2: cytokine added to the Treg suppression assay
- reversal of Treg activity [1]: reversed completely
- reversal of Treg activity [2]: completely reversed

B1: Avonex®: interferon-beta 1a produced in Chinese Hamster Ovary cells, marketed by Biogen (protein, UniProt P01574 22-187, looked up)
Interferon beta: MSYNLLGFLQRSSNFQCQKLLWQLNGRLEYCLKDRMNFDIPEEIKQLQQFQKEDAALTIYEMLQNIFAIFRQDSSSTGWNETIVENLLANVYHQINHLKTVLEEKLEKEDFTRGKLMSSLHLKRYYGRILHYLKAKEYSHCAWTIVRVEILRNFYFINRLTGYLRN
- subjects with improved Expanded Disability Status Scale (EDSS) scores ([3]; human, in vivo): approximately 22%
- decrease in the number of gadolinium (Gd)-enhanced lesions ([3]; subjects administered the drug for two years): up to 13%

B2: Rebif®: interferon-beta 1a marketed by Serono, subcutaneous injection (protein, UniProt P01574 22-187, looked up)
Interferon beta: MSYNLLGFLQRSSNFQCQKLLWQLNGRLEYCLKDRMNFDIPEEIKQLQQFQKEDAALTIYEMLQNIFAIFRQDSSSTGWNETIVENLLANVYHQINHLKTVLEEKLEKEDFTRGKLMSSLHLKRYYGRILHYLKAKEYSHCAWTIVRVEILRNFYFINRLTGYLRN
- reduction of relapse rates ([3]; according to Samkoff 2002): 33%

B3: Betaseron®: interferon-beta 1b made in Escherichia coli, serine for cysteine at position 17 (protein, UniProt P01574 22-187, looked up)
Interferon beta: MSYNLLGFLQRSSNFQCQKLLWQLNGRLEYCLKDRMNFDIPEEIKQLQQFQKEDAALTIYEMLQNIFAIFRQDSSSTGWNETIVENLLANVYHQINHLKTVLEEKLEKEDFTRGKLMSSLHLKRYYGRILHYLKAKEYSHCAWTIVRVEILRNFYFINRLTGYLRN
- reduction of exacerbation rate ([3]; according to Physicians' Desk Reference (1996)): about 31%
